HCMV NEC inh – inhibitors of HCMV UL50-UL53 interaction, biochemical, HTRF; HCMV UL50-UL53 nuclear egress complex (human cytomegalovirus); normalized percent inhibition; inhibition, % (concentration not given with the values); 0.15% of 190,000 active; AID 1918969, 2023; in the data active = inhibition above about 27%, passing the limit was not always enough
GIV-Gai inh – inhibitors of GIV GBA-motif binding to rat Galpha-i3; P08753; Galpha-i3/FITC-GIV peptide fluorescence polarization, 90 min; active compounds read low; scaled: aluminum fluoride 0%, vehicle 100%; percent of control (FP), % (test concentration not listed); 210,000 tested, 0.42% active; AID 1224905;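 active = replicate mean at 85% of control or lower, very high polarization wells dropped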;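 note: lower values mean more displacement of the GIV peptide from Galpha-i3; wells of about 15 µL received 100 nL stock; the first replicate is given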
GIV Gai FP conf – inhibitors of GIV peptide binding to Galpha-i3, confirmation, biochemical, fluorescence polarization, FITC-GIV peptide, rat Galphai3 | shares compounds with GIV-Gai inh | hits give low values | fluorescence polarization, mP at 100 µM | 38% of 580 active;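 active = inhibition score of 15 or more, meaning 100 minus mean polarization as percent of control over three replicates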;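 note: lower mP means peptide displaced from Galphai3 so more inhibition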
GIV Gai AS conf – inhibitors of GIV binding to Galpha-i3, confirmation, orthogonal assay for GIV-Galpha-i inhibitor project, biochemical, AlphaScreen, His-GIV, GST-Galphai3; shares compounds with GIV-Gai inh; 39% of 580 active; AlphaScreen counts at 100 µM; purified proteins, 90 min; hits give low values; AID 1259351, 2017;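 active = inhibition score at or above a set limit, where the score is 100 minus the three-replicate mean percent of control signal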
* hit, by the source's call; . = no result. A selection: hits, their analogues and other compounds. The true share with any hit is near 0.46%.

Screens by letter: A = HCMV NEC inh; B = GIV-Gai inh; C = GIV Gai FP conf; D = GIV Gai AS conf
[1] CN1C(=O)C(=Cc2cn(CC(=O)N3CCCC3)c3ccccc23)C(=O)N(C)C1=O
  A = .	B = 103	C = .	D = .
[2] COCCNC(=O)Cn1cc(C=C2C(=O)N(C)C(=O)N(C)C2=O)c2ccccc21
  A = -6	B = 96	C = 72	D = 40853
[3] CCCC1=C(C(=O)OCc2ccccc2)C2(C(=O)Nc3ccccc32)C(C(=O)OCC)=C(N)O1 (stereo not given)
  A = .	B = 96	C = .	D = .
[4] CC[N+](CC)=c1ccc2ccc(O)cc2o1
  A = -31	B = 63*	C = 43*	D = 33013*
[5] Cc1cc(OCC(N)=O)c2c3c(c(=O)oc2c1)CCCC3
  A = -10	B = .	C = .	D = .
[6] O=C1NC(=O)N(c2ccccc2)C(=O)/C1=C/c1ccccc1
  A = 6	B = 97	C = .	D = .
[7] O=C1NC(=O)C(=Cc2ccccc2)C(=O)N1
  A = 99*	B = 29*	C = 32*	D = 27826*
[8] O=C1NC(=O)C(=Cc2ccc(N3CCOCC3)cc2)C(=O)N1
  A = -2	B = 102	C = .	D = .
[9] CC(C)c1ccc(C=C2C(=O)NC(=O)NC2=O)cc1
  A = .	B = 32*	C = 28*	D = 33706
[10] COc1ccc(Br)cc1C1C(C#N)=C(N)Oc2c1c(=O)oc1ccccc21 (stereo not given)
  A = .	B = 103	C = .	D = .
[11] CC(=O)N1N=C(c2cccnc2)OC1c1cccnc1 (stereo not given)
  A = -1	B = 95	C = .	D = .
[12] CCCN1CCN(C(=O)Cc2csc(-c3ccc(OC)c(OC)c3)n2)CC1
  A = -71	B = .	C = .	D = .
[13] CC(C)CNC1CCC(O)CC1 (stereo not given)
  A = -12	B = .	C = .	D = .
[14] N#CC1=C(N)Oc2c(c(=O)oc3ccccc23)C1c1ccccc1OC(=O)N1CCOCC1 (stereo not given)
  A = .	B = 111	C = .	D = .

Quoted at random: 2 compounds from above, in no set order.
Screens by letter: A = HCMV NEC inh; B = GIV-Gai inh; C = GIV Gai FP conf; D = GIV Gai AS conf
[14] N#CC1=C(N)Oc2c(c(=O)oc3ccccc23)C1c1ccccc1OC(=O)N1CCOCC1 (stereo not given)
  A = .	B = 111	C = .	D = .
[9] CC(C)c1ccc(C=C2C(=O)NC(=O)NC2=O)cc1
  A = .	B = 32*	C = 28*	D = 33706

High-throughput results from PubChem BioAssay.
